Results: ChEMBL document CHEMBL5576054, “Lead compound profiling for small molecule inhibitors of the REV1-CT/RIR Translesion synthesis Protein-Protein interaction” (Bioorg Med Chem, 2024)

Molecular target: T1, DNA repair protein REV1 (Homo sapiens) (UniProt Q9UBZ9)
T1 sequence (whole entry): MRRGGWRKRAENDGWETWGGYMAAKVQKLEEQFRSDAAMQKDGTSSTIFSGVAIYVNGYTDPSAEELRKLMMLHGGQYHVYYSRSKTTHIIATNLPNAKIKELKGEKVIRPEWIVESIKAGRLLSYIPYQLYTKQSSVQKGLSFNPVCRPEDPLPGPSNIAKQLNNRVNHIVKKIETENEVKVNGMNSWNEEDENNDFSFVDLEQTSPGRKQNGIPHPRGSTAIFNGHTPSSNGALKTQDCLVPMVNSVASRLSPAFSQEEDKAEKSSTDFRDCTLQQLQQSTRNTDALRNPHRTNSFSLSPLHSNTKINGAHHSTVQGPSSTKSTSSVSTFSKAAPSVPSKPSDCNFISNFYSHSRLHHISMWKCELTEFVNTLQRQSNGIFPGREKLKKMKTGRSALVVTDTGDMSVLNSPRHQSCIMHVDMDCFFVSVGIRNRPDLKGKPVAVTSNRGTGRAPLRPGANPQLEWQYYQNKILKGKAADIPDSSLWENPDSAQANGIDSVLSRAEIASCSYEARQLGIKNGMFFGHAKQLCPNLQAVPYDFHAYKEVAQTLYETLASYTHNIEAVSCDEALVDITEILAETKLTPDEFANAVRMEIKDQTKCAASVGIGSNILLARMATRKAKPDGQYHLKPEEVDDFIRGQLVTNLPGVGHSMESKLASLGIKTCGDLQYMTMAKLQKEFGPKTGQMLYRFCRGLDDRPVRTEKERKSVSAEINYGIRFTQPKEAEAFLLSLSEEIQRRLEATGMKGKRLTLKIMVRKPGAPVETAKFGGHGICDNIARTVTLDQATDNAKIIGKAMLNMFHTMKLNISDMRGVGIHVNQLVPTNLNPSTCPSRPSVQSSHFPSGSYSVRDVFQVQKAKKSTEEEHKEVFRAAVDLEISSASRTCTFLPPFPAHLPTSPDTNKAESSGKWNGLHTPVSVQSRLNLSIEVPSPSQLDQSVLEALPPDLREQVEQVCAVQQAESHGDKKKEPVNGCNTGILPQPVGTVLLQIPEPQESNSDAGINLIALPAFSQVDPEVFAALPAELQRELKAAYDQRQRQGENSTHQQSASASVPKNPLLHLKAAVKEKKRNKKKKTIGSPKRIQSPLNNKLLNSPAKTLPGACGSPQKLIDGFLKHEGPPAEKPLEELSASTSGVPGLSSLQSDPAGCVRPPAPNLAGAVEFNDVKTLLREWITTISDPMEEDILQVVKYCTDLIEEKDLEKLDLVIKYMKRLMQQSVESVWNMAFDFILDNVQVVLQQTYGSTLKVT
Assay: Binding affinity to C-terminal human REV-1 incubated for 30 mins by MST assay

Row | Activity | SMILES
1 | inactive | CCCCc1ccc(-n2nnc(C(=O)N(C)C3CCS(=O)(=O)C3)c2C)cc1 (stereo not drawn)
2 | inactive | Cc1ccc(C(=O)N2CCN(c3ccccc3)CC2)cc1S(=O)(=O)N1CCOCC1
3 | inactive | CC(=O)C(C)n1c(CN2CCN(c3cccc(Cl)c3)CC2)nc2c1c(=O)n(C)c(=O)n2C (stereo not drawn)

Calls of active or inactive are those of the source. No cut-off for these calls is given here.
